Laboratory results from patent US4006232A, “Therapeutic method of treating cardiac arrhythmias utilizing 3-substituted diphenylhydantoins” (Miles Laboratories, Inc., priority 1974, dated 1977).

Experiment: in vivo
Conditions: mouse, ip
Method: The tests compounds were administered to groups consisting of 5 mice in varying intraperitoneal doses. Ten minutes after administration of a given dose of a compound, a mouse was transferred to a covered 300 ml glass beaker which contained a wad of cotton saturated with about 20 ml of chloroform. The animal was observed closely and removed from the beaker immediately after respiratory arrest. The heart was quickly exposed by making an incision through the abdomen, diaphragm, thorax and pericardium for visual inspection of ventricular rate and rhythm. Ventricular contractions were counted for 30 seconds. According to the procedure reported by Lawson (J. Pharmacol. Exp. Therap., 160:22 [1968]), animals with a ventricular rate not exceeding 100 contractions during the 30 second observation period were considered protected. Results obtained with each dose were used to calculate the mean effective doses (ED50) after the method of Litchfield and Wilcoxon (J. Pharmacol. Exp. Therap. 96: 99-113 [ 1949]).

SMILES: O=C1NC(=O)C(c2ccccc2)(c2ccccc2)N1 [I, 5,5-diphenyl-2,4-imidazolidinedione]
- selectivity ratio: 2.54
